Assays:
[1] = tested on: AR-Luc/LNCaP cells; details: 24 h treatment
[2] = tested on: AR-Luc/LNCaP cells; assay type: cell-based

| Compound | cell viability / cytotoxicity [1] | stimulation of AR-Luc reporter activity by agonist [2] | time to maximal AR-Luc reporter activity [2] [h] |
| --- | --- | --- | --- |
| O=c1oc2c(O)c(O)cc3c(=O)oc4c(O)c(O)cc1c4c23 [EA, ellagic acid] | without cellular toxicity | – | – |
| C[C@]12CCC(=O)C[C@@H]1CC[C@@H]1[C@@H]2CC[C@]2(C)[C@@H](O)CC[C@@H]12 [DHT, dihydrotestosterone] | – | stimulated | 24 |

— publication PMC10380868, “Trapa bispinosa Roxb. Pericarp Extract Exerts 5α-Reductase Inhibitory Activity in Castrated Benign Prostatic Hyperplasia Model Mice” (International Journal of Molecular Sciences, 2023)
